Patent US20260116920A1, “HUMAN TRANSFERRIN RECEPTOR BINDING PEPTIDE” (PEPTIDREAM INC., priority 2021, published 2026)

Protein sequences, listed by entry. Tags and fused reporters are not part of them. Residues count along the entry.
UniProt P02786, 89-760 limits assumed: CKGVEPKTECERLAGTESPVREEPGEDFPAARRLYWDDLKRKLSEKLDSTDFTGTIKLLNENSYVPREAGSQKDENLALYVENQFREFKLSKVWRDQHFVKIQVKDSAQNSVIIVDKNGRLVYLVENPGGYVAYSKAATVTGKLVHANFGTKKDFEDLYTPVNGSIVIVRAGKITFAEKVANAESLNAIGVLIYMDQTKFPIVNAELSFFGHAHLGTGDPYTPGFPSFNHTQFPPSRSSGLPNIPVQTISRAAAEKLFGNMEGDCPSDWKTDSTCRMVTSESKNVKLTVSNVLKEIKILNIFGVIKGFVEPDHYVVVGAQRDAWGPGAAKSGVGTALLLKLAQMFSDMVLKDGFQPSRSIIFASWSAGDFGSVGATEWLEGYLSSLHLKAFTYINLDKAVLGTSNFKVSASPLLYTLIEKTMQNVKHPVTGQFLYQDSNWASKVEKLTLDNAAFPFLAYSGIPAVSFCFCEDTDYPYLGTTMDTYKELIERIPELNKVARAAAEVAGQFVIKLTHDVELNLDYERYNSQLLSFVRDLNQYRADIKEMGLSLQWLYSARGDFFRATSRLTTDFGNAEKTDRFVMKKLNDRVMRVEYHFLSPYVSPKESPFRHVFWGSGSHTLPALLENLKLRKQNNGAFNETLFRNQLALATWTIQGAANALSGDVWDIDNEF

Molecular target: T1, human transferrin receptor (hTfR) (Homo sapiens, UniProt P02786)
T1 construct: made in house
Test: Evaluation of molecular interaction between transferrin receptor (hTfR) and peptide using surface plasmon resonance (SPR)
Assay type: binding
Conditions: KD class of the peptide with linker for hTfR by surface plasmon resonance
Description: Evaluation Test of Molecular Interaction Between Transferrin Receptor (hTfR) and Peptide Using Surface Plasmon Resonance (SPR)
The intermolecular interactions of various synthesized peptides with the transferrin receptor (hTfR) by surface plasmon resonance (SPR) of the peptides were tested by the methods described below. Specific test methods are shown below.
NTA sensor chip (Global Life Sciences Technologies Japan K.K.) was inserted into BiacoreT200 (Global Life Sciences Technologies Japan K.K.), then the priming operation was performed three times by using running buffer containing: 10 mM HEPES pH 8.0 (Nacalai Tesque, Inc.), 150 mM NaCl (Nacalai Tesque, Inc.), 0.05% Tween 20 (Nacalai Tesque, Inc.), 0.1% BSA (SIGMA-ALDRICH) and 1.0% DMSO (FUJIFILM Wako Pure Chemical Corporation), and equilibrated at a flow rate of 30 μL/min. 350 mM EDTA solution was reacted at a flow rate of 10 μL/min for 60 seconds, 0.5 mM […] solution (Kishida Chemical Co., Ltd.) was reacted at a flow rate of 10 μL/min for 60 seconds, and then the NTA sensor chip was washed with 3 mM EDTA solution (Nacalai Tesque, Inc.) at a flow rate of 10 μL/min for 60 seconds. After mixing 50 μL each of 60 mM EDC solution (Global Life Science Technologies Japan K.K.) and 650 mM NHS solution (Global Life Science Technologies Japan K.K.), the reaction was carried out at a flow rate of 10 μL/min for 420 seconds. 150 μL of 0.5 μM hTfR dimer solution was prepared by dilution with running buffer and reacted at a flow rate of 10 μL/min for 300 seconds to immobilize hTfR on the NTA sensor chip. For the human transferrin receptor (hTfR), recombinant hTfR described in Example 2 of WO2018/124121 was used. After immobilization, capping was performed by reacting with 1.0 M ethanolamine solution (Global Life Sciences Technologies Japan K.K.) at a flow rate of 10 μL/min for 420 seconds. Peptide lysate prepared in DMSO solution to 10 mM was diluted with running buffer to be a final concentration of 10 μM peptide lysate, then peptide solutions of 100 nM, 50 nM, 25 nM, 10 nM, and 5 nM were prepared. Using the above samples, the kinetics of the peptide against hTfR was obtained by SPR measurement.
The kinetic evaluation model was single-cycle kinetics, and curve fitting was performed using Biacore T200 Evaluation Software Version 3.0 (Global Life Science Technologies Japan K.K.). The binding of the peptide to hTfR was evaluated by performing curve fitting on the obtained sensorgram by least squares method and obtaining the KD value.

| Kd (read-out: SPR) [µM] | SMILES | Kd (SPR) [µM] |
| --- | --- | --- |
| 0.1 to 1 | CC[C@H](C)[C@@H]1NC(=O)[C@H](Cc2ccc(OCC(=O)O)cc2)NC(=O)[C@H](Cc2ccc(O)cc2)NC(=O)[C@H](CC(N)=O)NC(=O)[C@H](Cc2cn(CC(=O)O)c3ccccc23)NC(=O)[C@H](C(C)C)NC(=O)[C@H](Cc2cccc(Cl)c2)N(C)C(=O)[C@H](C(C)C)NC(=O)[C@H](C)NC(=O)CSC[C@@H](C(=O)NCC(=O)N[C@@H](CCCCN=[N+]=[N-])C(N)=O)NC(=O)[C@H](Cc2ccc(O)cc2)N(C)C(=O)[C@H](Cc2ccncc2)NC(=O)[C@H](CCCNC(=N)N)NC(=O)[C@H](CCC(=O)NCCOCCOCCOCCOCCOCCOCCOCCOC)NC(=O)[C@H]([C@@H](C)CC)NC1=O [compound 268] |  |
| 0.001 to 0.1 | CC[C@H](C)[C@@H]1NC(=O)[C@H](Cc2ccc(OCC(=O)O)cc2)NC(=O)[C@H](Cc2ccc(N)nc2)NC(=O)[C@H](CC(N)=O)NC(=O)[C@H](Cc2c[nH]c3ccccc23)NC(=O)[C@H](C(C)C)NC(=O)[C@H](Cc2cccc(Cl)c2)N(C)C(=O)[C@H](C(C)C)NC(=O)[C@H](C)NC(=O)CSC[C@@H](C(=O)NCC(=O)NCC(=O)NCC(=O)NCC(=O)N[C@@H](CO)C(=O)N[C@@H](CO)C(=O)N[C@@H](CCCCN=[N+]=[N-])C(N)=O)NC(=O)[C@H](Cc2ccc(O)cc2)N(C)C(=O)[C@H](Cc2cccc(C(=O)O)c2)NC(=O)[C@H](CCCNC(=N)N)NC(=O)[C@H](CCC(=O)NCCOCCOCCOCCOCCOCCOCCOCCOC)NC(=O)[C@H]([C@@H](C)CC)NC1=O [compound 269] |  |
| 0.001 to 0.1 | CC[C@H](C)[C@@H]1NC(=O)[C@H](Cc2ccc(OCC(=O)O)cc2)NC(=O)[C@H](Cc2ccc(N)nc2)NC(=O)[C@H](CC(N)=O)NC(=O)[C@H](Cc2c[nH]c3ccccc23)NC(=O)[C@H](C(C)C)NC(=O)[C@H](Cc2cccc(Cl)c2)N(C)C(=O)[C@H](C(C)C)NC(=O)[C@H](C)NC(=O)CSC[C@@H](C(=O)NCC(=O)N(C)CC(=O)N(C)CC(=O)N(C)CC(=O)N(C)CC(=O)N(C)CC(=O)N[C@@H](CCCCN=[N+]=[N-])C(N)=O)NC(=O)[C@H](Cc2ccc(O)cc2)N(C)C(=O)[C@H](Cc2cccc(C(=O)O)c2)NC(=O)[C@H](CCCNC(=N)N)NC(=O)[C@H](CCC(=O)NCCOCCOCCOCCOCCOCCOCCOCCOC)NC(=O)[C@H]([C@@H](C)CC)NC1=O [compound 270] |  |
| 0.001 to 0.1 | CC[C@H](C)[C@@H]1NC(=O)[C@H](Cc2ccc(OCC(=O)O)cc2)NC(=O)[C@H](Cc2ccc(N)nc2)NC(=O)[C@H](CC(N)=O)NC(=O)[C@H](Cc2c[nH]c3ccccc23)NC(=O)[C@H](C(C)C)NC(=O)[C@H](Cc2cccc(Cl)c2)N(C)C(=O)[C@H](C(C)C)NC(=O)[C@H](C)NC(=O)CSC[C@@H](C(=O)NCC(=O)N[C@@H](CCCCN=[N+]=[N-])C(N)=O)NC(=O)[C@H](Cc2ccc(O)cc2)N(C)C(=O)[C@H](Cc2cccc(C(=O)O)c2)NC(=O)[C@H](CCCNC(=N)N)NC(=O)[C@H](CCC(=O)NCCOCCOCCOCCOCCOCCOCCOCCOC)NC(=O)[C@H]([C@@H](C)CC)NC1=O [compound 271] |  |
| 0.001 to 0.1 | CC[C@H](C)[C@@H]1NC(=O)[C@H](Cc2ccc(OCC(=O)O)cc2)NC(=O)[C@H](Cc2ccc(N)nc2)NC(=O)[C@H](CC(N)=O)NC(=O)[C@H](Cc2c[nH]c3ccccc23)NC(=O)[C@H](C(C)C)NC(=O)[C@H](Cc2cccc(Cl)c2)N(C)C(=O)[C@H](C(C)C)NC(=O)[C@H](C)NC(=O)CSC[C@@H](C(=O)NCC(=O)N[C@H](CCC(=O)O)C(=O)N[C@H](CCC(=O)O)C(=O)N[C@H](CCC(=O)O)C(=O)N[C@H](CO)C(=O)N[C@H](CO)C(=O)N[C@@H](CCCCN=[N+]=[N-])C(N)=O)NC(=O)[C@H](Cc2ccc(O)cc2)N(C)C(=O)[C@H](Cc2cccc(C(=O)O)c2)NC(=O)[C@H](CCCNC(=N)N)NC(=O)[C@H](CCC(=O)NCCOCCOCCOCCOCCOCCOCCOCCOC)NC(=O)[C@H]([C@@H](C)CC)NC1=O [compound 272] |  |
| 0.001 to 0.1 | CC[C@H](C)[C@@H]1NC(=O)[C@H](Cc2ccc(O)cc2)NC(=O)[C@H](Cc2ccc(O)cc2)NC(=O)[C@H](CC(N)=O)NC(=O)[C@H](Cc2c[nH]c3ccccc23)N(C)C(=O)[C@H](C(C)C)NC(=O)[C@H](Cc2ccccc2)N(C)C(=O)[C@H](C(C)C)NC(=O)[C@H](C)NC(=O)CSC[C@@H](C(=O)NCC(=O)NCC(=O)N[C@H](CCCNC(=N)N)C(=O)NCC(=O)N[C@H](CCCNC(=N)N)C(=O)N[C@H](CO)C(=O)N[C@@H](CCCCN=[N+]=[N-])C(N)=O)NC(=O)[C@H](Cc2ccc(O)cc2)N(C)C(=O)[C@H](Cc2ccc(O)cc2)NC(=O)[C@H](CCCNC(=N)N)NC(=O)[C@H](CCCCN)NC(=O)[C@H]([C@@H](C)CC)NC1=O [compound 274] |  |
|  | CC[C@H](C)[C@@H]1NC(=O)[C@H](Cc2ccc(O)cc2)NC(=O)[C@H](Cc2ccc(O)cc2)NC(=O)[C@H](CC(N)=O)NC(=O)[C@H](Cc2c[nH]c3ccccc23)N(C)C(=O)[C@H](C(C)C)NC(=O)[C@H](Cc2ccccc2)N(C)C(=O)[C@H](C(C)C)NC(=O)[C@H](C)NC(=O)CSC[C@@H](C(=O)NCC(=O)NCC(=O)NCC(=O)NCC(=O)N[C@@H](CO)C(=O)N[C@@H](CO)C(=O)N[C@@H](CCCCN=[N+]=[N-])C(N)=O)NC(=O)[C@H](Cc2ccc(O)cc2)N(C)C(=O)[C@H](Cc2ccc(O)cc2)NC(=O)[C@H](CCCNC(=N)N)NC(=O)[C@H](CCCCN)NC(=O)[C@H]([C@@H](C)CC)NC1=O [compound 275] | 0.001 to 0.1 |
| 0.001 to 0.1 | CC[C@H](C)[C@@H]1NC(=O)[C@H](Cc2ccc(O)cc2)NC(=O)[C@H](Cc2ccc(O)cc2)NC(=O)[C@H](CC(N)=O)NC(=O)[C@H](Cc2c[nH]c3ccccc23)N(C)C(=O)[C@H](C(C)C)NC(=O)[C@H](Cc2ccccc2)N(C)C(=O)[C@H](C(C)C)NC(=O)[C@H](C)NC(=O)CSC[C@@H](C(=O)NCC(=O)N(C)CC(=O)N(C)CC(=O)N(C)CC(=O)N(C)CC(=O)N(C)CC(=O)N[C@@H](CCCCN=[N+]=[N-])C(N)=O)NC(=O)[C@H](Cc2ccc(O)cc2)N(C)C(=O)[C@H](Cc2ccc(O)cc2)NC(=O)[C@H](CCCNC(=N)N)NC(=O)[C@H](CCCCN)NC(=O)[C@H]([C@@H](C)CC)NC1=O [compound 276] |  |
| 0.001 to 0.1 | CC[C@H](C)[C@@H]1NC(=O)[C@H](Cc2ccc(OCC(=O)O)cc2)NC(=O)[C@H](Cc2ccc(O)cc2)NC(=O)[C@H](CC(N)=O)NC(=O)[C@H](Cc2cn(CC(=O)O)c3ccccc23)NC(=O)[C@H](C(C)C)NC(=O)[C@H](Cc2cccc(Cl)c2)N(C)C(=O)[C@H](C(C)C)NC(=O)[C@H](C)NC(=O)CSC[C@@H](C(=O)NCC(=O)N[C@H](CCC(=O)O)C(=O)N[C@H](CCC(=O)O)C(=O)N[C@H](CCC(=O)O)C(=O)N[C@H](CO)C(=O)N[C@H](CO)C(=O)N[C@@H](CCCCN=[N+]=[N-])C(N)=O)NC(=O)[C@H](Cc2ccc(O)cc2)N(C)C(=O)[C@H](Cc2cccc(C(=O)O)c2)NC(=O)[C@H](CCCNC(=N)N)NC(=O)[C@H](CCC(N)=O)NC(=O)[C@H]([C@@H](C)CC)NC1=O [compound 277] |  |
| 0.001 to 0.1 | CC[C@H](C)[C@@H]1NC(=O)[C@H](Cc2ccc(OCC(=O)O)cc2)NC(=O)[C@H](Cc2ccc(O)cc2)NC(=O)[C@H](CC(N)=O)NC(=O)[C@H](Cc2cn(CC(=O)O)c3ccccc23)NC(=O)[C@H](C(C)C)NC(=O)[C@H](Cc2cccc(Cl)c2)N(C)C(=O)[C@H](C(C)C)NC(=O)[C@H](C)NC(=O)CSC[C@@H](C(=O)NCC(=O)NCC(=O)N[C@H](CCCNC(=N)N)C(=O)NCC(=O)N[C@H](CCCNC(=N)N)C(=O)N[C@H](CO)C(=O)N[C@@H](CCCCN=[N+]=[N-])C(N)=O)NC(=O)[C@H](Cc2ccc(O)cc2)N(C)C(=O)[C@H](Cc2cccc(C(=O)O)c2)NC(=O)[C@H](CCCNC(=N)N)NC(=O)[C@H](CCC(N)=O)NC(=O)[C@H]([C@@H](C)CC)NC1=O [compound 278] |  |
|  | CC[C@H](C)[C@@H]1NC(=O)[C@H](Cc2ccc(OCC(=O)O)cc2)NC(=O)[C@H](Cc2ccc(O)cc2)NC(=O)[C@H](CC(N)=O)NC(=O)[C@H](Cc2cn(CC(=O)O)c3ccccc23)NC(=O)[C@H](C(C)C)NC(=O)[C@H](Cc2cccc(Cl)c2)N(C)C(=O)[C@H](C(C)C)NC(=O)[C@H](C)NC(=O)CSC[C@@H](C(=O)NCC(=O)NCC(=O)NCC(=O)NCC(=O)N[C@@H](CO)C(=O)N[C@@H](CO)C(=O)N[C@@H](CCCCN=[N+]=[N-])C(N)=O)NC(=O)[C@H](Cc2ccc(O)cc2)N(C)C(=O)[C@H](Cc2cccc(C(=O)O)c2)NC(=O)[C@H](CCCNC(=N)N)NC(=O)[C@H](CCC(N)=O)NC(=O)[C@H]([C@@H](C)CC)NC1=O [compound 279] | 0.001 to 0.1 |

Like-named read-outs stand apart in the source and are kept apart here.
